According to ChEMBL document CHEMBL3098072 (Bioorg Med Chem, 2014):
In brackets after ≈: the same amount, converted by molar mass.

Key:
Assay in all cases: microbe, parasite or virus in culture
Bacillus subtilis = settings: 20 h
Staphylococcus aureus = settings: 20 h
[1] = tested on: Mycobacterium tuberculosis; settings: H37Rv, 96 h

`Nc1cccc(-c2cnnc(N3CCC(c4cccc(Cl)c4)C3)n2)c1` (centres undefined) was tested. Which MIC (Bacillus subtilis) did it give?
Its MIC is 32 µM (≈ 11.3 µg/mL).

What about the MIC (Staphylococcus aureus) of the same compound?
Its MIC is 30 µM (≈ 10.6 µg/mL).

And the MIC [1]?
The MIC was 29.7 µM (≈ 10.4 µg/mL).

Which results are given for `Clc1cccc(C2CCN(c3nncc(-c4ccccc4)n3)C2)c1` (centres undefined)?
MIC (Bacillus subtilis): 16 µM (≈ 5.39 µg/mL); MIC (Staphylococcus aureus): > 50 µM; MIC [1]: 32 µM (≈ 10.8 µg/mL)

For `COc1ccc(-c2cnnc(N3CCC(c4cccc(Cl)c4)C3)n2)cc1OC` (centres undefined), which MIC (Bacillus subtilis) is on record?
The MIC was 16 µM (≈ 6.35 µg/mL).

And the MIC (Staphylococcus aureus)?
Its MIC is greater than 50 µM.

What about the MIC [1] of the same compound?
The MIC was 15.4 µM (≈ 6.11 µg/mL).
